Measured values taken from PubChem BioAssay AID540277 (National Center for Advancing Translational Sciences (NCATS), 2011).
This is a selection; strong and weak results do not stand in their true shares. Results filed as inconclusive are left out. Calls of active or inactive are those of the source. Cut-off read from the data, not from the text of the source: active = potentiation above about 80%; inconclusive = between about 30% and that limit; inactive = weaker than that.

Sequences of proteins named here, by UniProt entry; tags and fusion partners are left off.
UniProt Q8NER1, whole entry: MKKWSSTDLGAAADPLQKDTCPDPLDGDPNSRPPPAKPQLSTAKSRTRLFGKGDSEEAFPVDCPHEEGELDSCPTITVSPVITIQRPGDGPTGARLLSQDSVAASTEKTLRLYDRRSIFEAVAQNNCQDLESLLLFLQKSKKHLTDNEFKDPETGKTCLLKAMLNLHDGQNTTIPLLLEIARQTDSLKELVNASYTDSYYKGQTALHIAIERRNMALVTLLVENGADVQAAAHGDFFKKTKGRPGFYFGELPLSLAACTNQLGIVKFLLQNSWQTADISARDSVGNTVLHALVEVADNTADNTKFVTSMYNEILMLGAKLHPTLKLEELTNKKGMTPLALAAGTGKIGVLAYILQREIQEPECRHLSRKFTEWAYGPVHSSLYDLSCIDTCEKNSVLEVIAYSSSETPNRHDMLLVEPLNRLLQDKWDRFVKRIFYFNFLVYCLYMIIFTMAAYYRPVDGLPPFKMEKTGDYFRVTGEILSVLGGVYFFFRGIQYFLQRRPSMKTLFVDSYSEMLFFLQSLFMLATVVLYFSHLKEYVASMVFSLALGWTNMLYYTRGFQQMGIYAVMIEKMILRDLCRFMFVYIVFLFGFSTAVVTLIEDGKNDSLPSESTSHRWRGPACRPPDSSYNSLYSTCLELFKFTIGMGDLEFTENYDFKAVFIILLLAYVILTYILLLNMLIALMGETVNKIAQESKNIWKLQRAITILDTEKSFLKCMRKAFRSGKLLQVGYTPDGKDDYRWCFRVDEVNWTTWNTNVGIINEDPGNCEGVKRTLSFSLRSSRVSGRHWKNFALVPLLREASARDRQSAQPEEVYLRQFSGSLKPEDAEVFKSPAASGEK

The molecules below were run against Transient receptor potential cation channel subfamily V member 1 (Homo sapiens) (UniProt Q8NER1) (assay: HTS Assay for Compounds that Act as Potentiators of the Vanilloid Receptor 1). Settings: TRPV1-expressing cells, Fluo-8 calcium influx, capsaicin EC20 potentiation; at 8.33 µM; stronger effect = higher value.
Excerpt: The transient receptor potential ion channel, family V, number 1, (TRPV1) is one of the most important molecular transducers of painful stimuli and a potential target for analgesic drug development. Although recent clinical trials with orthosteric antagonists have not produced a successful drug because of a hyperthermia side effect and their tendency to block thermal noxious pain, this ion channel is undeniably well placed in the pain pathway, and the idea of blocking pain signals before they enter the CNS is an excellent concept and of proven efficacy when TRPV1 agonists are used. […]
Upon TRPV1 activation in TRPV1 cells, the channel opens and extracellular cations flow through the channel into the cytosol. […] The amount of accumulated calcium is precisely quantified using the FDSS kinetic reader and the calcium dye. […] Plates will be loaded into the FDSS kinetic reader and a 1 sec / cycle for 10 second baseline signal will be measured. Compound library will then be added with a pintool at 23 nl and measured kinetically for 3 minutes. This portion of the read is considered the agonist portion of the screen. […] Signal will be measured kinetically for an additional 2 minutes. This portion of the read is considered the allosteric enhancer portion of the screen. The FDSS reader has a standard filter set capable of measuring calcium bound Fluo-8 (ex=480 and em=520 nm).
Note: 0% is about no effect.

SMILES | potentiation
CCC(C)N(CC(C)C)C(=S)SC(NC(C)=O)C(Cl)(Cl)Cl (configuration not stated) | inactive: 28.4%
CCc1ccc(OP(C)(=O)O)cc1 | inactive: -7.87%
